Measured affinities in a library of Ab-14 light chain variants

Source: Li et al. 2023 (doi:10.1038/s41467-023-39022-2), MIT Lincoln Laboratory and A-Alpha Bio; data file from the FLAb repository.

Binding partner: SARS-CoV-2 spike HR2 peptide, sequence PDVDLGDISGINAS.

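The parent was found by panning a naive human phage display library on the peptide. The variants were designed computationally from a first round of random CDR variants and then made and measured. Several design methods are mixed in this list. In AlphaSeq, yeast of one mating type display the scFv and yeast of the other type display the target. Binding brings cells together so that they mate, and sequencing counts the barcode pairs among the diploids. A regression on co-assayed BCL2-family reference pairs converts the normalised counts of each replicate to an apparent Kd. There are six technical replicates.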

Parent: Ab-14, a human scFv built as VH, a 15-residue (Gly4Ser)3 linker, VL. Only the CDRs of the light chain vary.
VH: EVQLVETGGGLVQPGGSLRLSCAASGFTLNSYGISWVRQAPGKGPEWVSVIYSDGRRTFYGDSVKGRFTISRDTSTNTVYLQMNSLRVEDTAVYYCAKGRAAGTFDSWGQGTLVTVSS
VL: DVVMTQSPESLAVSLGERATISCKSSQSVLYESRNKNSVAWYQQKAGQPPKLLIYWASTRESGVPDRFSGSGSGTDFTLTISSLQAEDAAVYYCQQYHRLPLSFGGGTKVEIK

Changes read parent residue, position, new residue, counted from the first residue of the VL shown.
Variants here have at most six changes.
Numbers give log10(Kd / nM), so 0 is 1 nM and 3 is 1 µM. Smaller is tighter.
Averages over replicates are reported, and they cover detected replicates only.
"nd" marks a missing value. The strain was present, yet no cells mated with the target were sequenced in that replicate, which points to weak or no binding.
The authors averaged sequences with at least three values out of six and counted those with two or fewer as poor binders.
The range of this assay differs from that of the first round, and the authors advise against merging the two.
Empty control strains, which show no peptide, gave a signal in 4% of pairings with all light chain designs; the median was 2.64 and 95% of these signals were weaker than 1.59. No background was subtracted.
Of ten entries with the parent sequence, four were seen in most replicates (averages 0.34 to 2.37), three in one and three in none, so single entries are noisy.

For S28A W56S R60Q S62A, the assay gave 1.19, 1.56, 0.96, 0.98, 0.67, 0.99 (mean 1.06). With S28A Y31D S33D R34Q W56Q the result was 0.89, 0.78, 0.98, 0.69, 0.98, 1.12 (mean 0.90). With S25L S26P V29A L30E E32G W56S the result was -0.33, -0.41, -0.55, -0.41, -0.29, -0.24 (mean -0.37). Variant S25I V29Q Y31G K36V W56N showed -0.42, -0.42, -0.37, -0.52, -0.48, -0.49 (mean -0.45). Variant K24H Q27P L30Y W56N T59S gave 0.43, 0.46, 0.01, 0.28, 0.17, 0.15 (mean 0.25). Variant E32D K36V gave 1.39, 1.07, 1.28, 1.36, 1.10, 1.67 (mean 1.31). Variant S26Q K36A S58A Q95P Y97Q H98E showed nd, nd, nd, nd, 2.19, nd. For Q27I V29Y E32N R34D W56E, the assay gave 0.08, 0.21, 0.21, 0.47, 0.35, 0.41 (mean 0.29). With K24I S25I V29M K36W W56N E61W the result was 0.33, 0.82, 0.75, 0.99, 0.80, 0.55 (mean 0.71).

Variant S25L V29N W56N T59Q showed -0.72, -0.73, -0.70, -0.65, -0.51, -0.03 (mean -0.56). Variant S26Y S28G S38H W56G gave 0.41, 0.44, 0.41, 0.58, 0.47, 0.90 (mean 0.54). With K36V H98Q the result was 2.43, 1.79, nd, 2.86, 2.71, 2.54 (mean 2.47). With N35E S38N T59I the result was nd, nd, nd, nd, nd, nd. Variant S25L N37V S58D Q95P L100T gave nd, nd, nd, nd, nd, nd. For S25L Q27I V29E Y31I W56E, the assay gave 0.13, 0.11, 0.27, -0.09, 0.27, 0.10 (mean 0.13). Variant S25F S26M showed 1.02, 0.84, 1.06, 1.58, 1.65, 1.69 (mean 1.31). Variant S25L L30M K36P W56N showed -0.21, -0.40, -0.49, -0.51, -0.50, -0.28 (mean -0.40). With S25L L30E W56E S62Y S103A the result was 0.47, 0.46, 0.37, 0.27, 0.29, 0.59 (mean 0.41).

Variant S25L S26Y V29G W56E showed -0.18, -0.24, -0.39, -0.23, -0.52, -0.35 (mean -0.32). With S26G Q27F S28G W56G the result was 0.13, 0.64, 0.28, 1.02, 0.26, 0.68 (mean 0.50). With S25L S26E V29H W56N the result was 0.45, 0.14, 0.20, 0.11, 0.43, 0.16 (mean 0.25). Variant S33N W56E gave 0.81, 1.51, 0.03, 0.31, 0.81, 1.25 (mean 0.79). For S25L N35W W56N E61M, the assay gave -0.19, -0.06, -0.04, -0.20, -0.07, 0.14 (mean -0.07). Variant S25Y S26Y Q27P V29Y W56Q R99L gave 0.88, 0.76, 0.45, 0.49, 0.78, 0.69 (mean 0.67). Variant L30V W56E T59E gave nd, nd, nd, 1.75, nd, nd. For S25L S28V V29Y W56G, the assay gave -0.22, -0.07, -0.37, -0.47, -0.26, -0.16 (mean -0.26). For L30S R34T T59E Q96A, the assay gave nd, 1.74, 2.20, 2.10, 3.41, 2.92 (mean 2.47).

For S25M Y31M K36C W56D, the assay gave 0.49, 0.32, 0.21, 0.17, 0.00, 0.70 (mean 0.31). For S25L Y31G E32G W56H T59Q S103Y, the assay gave 0.73, 0.51, 0.61, 0.38, 0.51, 0.35 (mean 0.52). Variant S25Q L30P W56M showed 0.58, 0.41, 0.58, 0.77, 0.45, 0.35 (mean 0.52). With K24I Y31D K36D W56D the result was 0.45, 0.56, 0.50, 1.00, 0.37, 0.94 (mean 0.64). Variant S25L S26P S28G W56N T59V showed 0.11, 0.07, 0.12, -0.11, -0.08, 0.12 (mean 0.04). Variant T59Q Q96W Y97G S103L gave nd, nd, nd, nd, nd, nd. Variant S25Q L30D S33W W56D showed -0.05, -0.11, -0.06, -0.09, -0.09, 0.20 (mean -0.04). With S26M Y31P T59G the result was nd, nd, nd, nd, nd, nd. Variant S25M V29Q R34Q S62A gave nd, 1.53, 1.82, 1.72, 1.86, 3.08 (mean 2.00).

Variant S25L S26E W56N E61Y showed 0.08, 0.12, -0.03, -0.09, 0.03, 0.23 (mean 0.06). With E61S Y97C L100N the result was nd, nd, nd, nd, nd, nd. Variant S25F K36F E61M S103Q gave 2.14, 0.79, 0.16, 0.69, 0.72, 1.06 (mean 0.93). Variant K24H S28E Y31E E61F showed 1.75, 2.10, 1.63, 1.73, 2.12, 1.73 (mean 1.84). For K24Q W56E, the assay gave 0.45, 0.99, 1.02, 0.53, 0.71, 1.17 (mean 0.81). Variant L30E Y31M K36S W56D showed 0.37, -0.03, 0.04, 0.03, -0.07, -0.19 (mean 0.02). Variant N37K E61P S103M showed nd, 4.04, nd, nd, nd, nd. For Q27Y S28G Y31H R34V K36S W56S, the assay gave 0.16, -0.02, -0.14, -0.27, -0.03, 0.09 (mean -0.04). With K24S L30P R34G the result was 2.04, 1.37, 1.65, 2.81, 1.57, 2.59 (mean 2.00).

For S25L V29T K36Q, the assay gave 0.35, 0.01, 0.28, -0.12, 0.40, 0.88 (mean 0.30). Variant S25L S33W R34G V39H gave nd, nd, nd, nd, nd, nd. With S25L S26Q L30G W56N T59Q the result was 0.12, -0.02, -0.05, -0.05, -0.10, 0.18 (mean 0.01). Variant S25L S26M L30D W56N showed 0.05, -0.03, -0.14, -0.08, 0.04, -0.02 (mean -0.03).

Picked from the list: the 3 lowest averages where every replicate gave a value.

changes	log10 Kd, replicates	log10 Kd (nM), mean
S25L V29N W56N T59Q	-0.72, -0.73, -0.70, -0.65, -0.51, -0.03	-0.56
S25I V29Q Y31G K36V W56N	-0.42, -0.42, -0.37, -0.52, -0.48, -0.49	-0.45
S25L L30M K36P W56N	-0.21, -0.40, -0.49, -0.51, -0.50, -0.28	-0.40